Where “and” joins values, the source holds several entries; their conditions need not be identical. Equal values may be shown once. This is a selection; strong and weak results do not stand in their true shares. Calls of active or inactive are those of the source.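 How the source made its calls: active means activation above its plate's cutoff, the mean activation of test wells on that plate plus 3 SD (cut at about 19% in these data); inactive means the rest.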
These compounds were tested on transient receptor potential cation channel N1 (TRPN1/NompC), Danio rerio (assay: zebrafish TRPN1 channel agonists, primary screen, cell-based, HEK293, calcium fluorescence (AID 1424;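 further: 0% = DMSO alone and 100% = 87 µM carbachol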)). Conditions: HEK293 zebrafish TRPN1-YFP, Fluo-8 calcium fluorescence; at 3 µM; active compounds read high; 100% = response to 87 µM carbachol.
Method in brief: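 Material: zebrafish TRPN1-YFP in HEK293 cells. Doses: one dose of 3 µM, 0.3% DMSO. Incubation: dye 1 h 37 °C plus 30 min RT. Measured by: intracellular calcium fluorescence with Fluo-8.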

SMILES | activation
COc1ccccc1OP(=O)(Nc1ccc(C)cn1)Oc1ccccc1OC | inactive: -1.02%
Cc1ccc(OP(=O)(Nc2nccs2)Oc2ccc(C)cc2)cc1 | inactive: 0.31%
Cc1ccc(N/C(=N/P(=O)(N2CCOCC2)N2CCOCC2)N2CCOCC2)cc1 | inactive: 1.64%
NC(=O)c1cc([N+](=O)[O-])cc([N+](=O)[O-])c1N | inactive: 0.15%
Nc1cccc2ccc([As](=O)(O)O)cc12 | inactive: 1.01%
CCN(N=Nc1nonc1N)c1nonc1N | inactive: 1.41%
CCOP(=O)(Nc1ccccc1)OCC | inactive: -0.23% and inactive: -1.05%
Cc1cc(SC(NC(=O)c2ccc(F)cc2)C(Cl)(Cl)Cl)ncn1 (centres undefined) | inactive: 0.46%
Cc1ccc(NP(=O)(Oc2ccccc2F)Oc2ccccc2F)nc1 | inactive: 1.69%
O=P(Nc1nc2ccc(Cl)cc2s1)(c1ccccc1)c1ccccc1 | inactive: 5.35%
O=C(O)c1ccccc1[As](=O)(O)O | inactive: -0.11%
CC(=O)Nc1ccc([As](=O)(O)O)cc1 | inactive: 1.81%
O=C(O)CNc1ccc([As](=O)(O)O)cc1 | inactive: -0.47%
O=[N+]([O-])c1cccc(NC2=NCC(CBr)S2)c1 (centres undefined) | inactive: 1.85%
O=[N+]([O-])c1ncn(CCn2ncnc2[N+](=O)[O-])n1 | inactive: 0%
CC(C)(C)C(=O)NC(Sc1ccncn1)C(Cl)(Cl)Cl (centres undefined) | inactive: -0.88%
O=C(Nc1cc([As](=O)(O)O)ccc1O)c1ccccc1 | inactive: 1.81%
CC1CCN(C(=O)Oc2c(Cl)cc(Cl)c3cccnc23)CC1 | inactive: -0.68%
CC(C)=N/N=C(\N)N[N+](=O)[O-] | inactive: 1%
CN(C)C(=O)OCCc1n(C)cc[n+]1C | inactive: -0.12%
CCN(/C(=N/P(=O)(N1CCOCC1)N1CCOCC1)N1CCOCC1)c1ccc(OC)cc1 | inactive: 0.8%
Nc1ccc([As](=O)(O)c2ccc(N)cc2)cc1 | inactive: -0.27%
C[N+]1=C2C=CC=CC=C2SC12C([N+](=O)[O-])=CC([N+](=O)[O-])=C[C-]2[N+](=O)[O-] (centres undefined) | inactive: 3.16%
Cc1ccc(NP(=O)(Oc2ccccc2)Oc2ccccc2)nc1 | inactive: 0.22%
CCc1nc2c(n1)c1c(non1O)c1c2no[n+]1[O-] | inactive: 7.02%
O=[N+]([O-])c1cc([N+](=O)[O-])c(CCNc2ccccc2)c([N+](=O)[O-])c1 | inactive: -1.04%
O=[N+]([O-])c1cccc2n[nH]nc12 | inactive: 1.23%
CC(=O)N1C2C3N(C(C)=O)C1C1N(C(C)=O)C(C(N1C(C)=O)N3C(C)=O)N2C(C)=O | inactive: 1.34%
COc1ccc(C2=NCC(CBr)S2)cc1 (centres undefined) | inactive: 1.75%
